Amino acid sequences for entries named in this document (tags omitted). A change or cut given only in a name is not applied to a line headed by its entry.
UniProt O76083: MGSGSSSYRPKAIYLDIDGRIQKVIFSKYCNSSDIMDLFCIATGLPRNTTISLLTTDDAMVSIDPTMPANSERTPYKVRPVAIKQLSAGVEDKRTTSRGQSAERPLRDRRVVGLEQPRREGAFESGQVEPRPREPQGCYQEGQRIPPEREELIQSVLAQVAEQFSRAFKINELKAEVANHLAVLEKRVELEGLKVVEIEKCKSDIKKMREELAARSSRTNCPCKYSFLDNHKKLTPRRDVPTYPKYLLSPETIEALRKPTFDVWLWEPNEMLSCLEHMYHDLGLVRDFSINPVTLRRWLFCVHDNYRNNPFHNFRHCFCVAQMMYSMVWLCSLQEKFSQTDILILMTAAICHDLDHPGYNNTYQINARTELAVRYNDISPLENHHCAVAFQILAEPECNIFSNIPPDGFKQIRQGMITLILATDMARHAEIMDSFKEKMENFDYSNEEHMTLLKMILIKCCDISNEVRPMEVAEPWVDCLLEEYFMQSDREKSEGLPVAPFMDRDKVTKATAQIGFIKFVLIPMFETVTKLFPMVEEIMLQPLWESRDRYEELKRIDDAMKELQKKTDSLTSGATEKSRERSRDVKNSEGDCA

According to ChEMBL document CHEMBL2176889, “Design, synthesis, and pharmacological evaluation of monocyclic pyrimidinones as novel inhibitors of PDE5” (J Med Chem, 2012):

Target: High affinity cGMP-specific 3',5'-cyclic phosphodiesterase 9A (Homo sapiens, UniProt O76083)

IC50: > 10 µM
Structure (SMILES): CCCc1nn(C)c2c(=O)[nH]c(-c3cc(S(=O)(=O)N4CCN(C)CC4)ccc3OCC)nc12
